Assay results as given in patent US12268667B2, “JAK1 pathway inhibitors for the treatment of prurigo nodularis” (Incyte Corporation, priority 2021, dated 2025).

Molecular target: human JAK1 (a.a. 837-1142) (Homo sapiens, UniProt P23458)
Test: In vitro JAK kinase assay (HTRF), JAK1
Format: biochemical
Conditions: 1 mM ATP

With CN(C)Cc1cc(F)cc(OC2CCN(CC(CC#N)n3cc(-c4ncnc5[nH]ccc45)cn3)CC2)c1 (single isomer, unassigned) [Compound 14, 4-(4-{3-[(dimethylamino)methyl]-5-fluorophenoxy}piperidin-1-yl)-3-[4-(7H-pyrrolo[2,3-d]pyrimidin-4-yl)-1H-pyrazol-1-yl]butanenitrile] the IC50 was < 10 nM.
